The values that follow are results of earlier work, collected in PMC4308941, “A crossover randomized comparative study of zofenopril and ramipril on cough reflex and airway inflammation in healthy volunteers” (Cough (London, England), 2014).

Structures are written as SMILES.

The conditions of the series: based on urinary recovery; cited from earlier work.

For the molecule `CCOC(=O)[C@H](CCc1ccccc1)N[C@@H](C)C(=O)N1[C@H](C(=O)O)C[C@@H]2CCC[C@@H]21` [ramipril], the extent of absorption result is “at least 56%”.
